A short description of this series: Pharmacokinetics in mice.

SMILES strings stand for the structures. Entries after “also recorded” stand apart in the source; their conditions may differ.

Results on one molecule are retold here after US20260240844A1, “INHIBITORS OF CHD1L AND USES THEREOF” (The Regents of the University of Colorado, a body corporate, priority 2023, published 2026).

Turning to `Cc1cc(Nc2ccc(NC(=O)Cc3cc(Br)cs3)cc2)nc(N2CCCC2)n1` [Compound 6.11, 2-(4-bromothiophen-2-yl)-N-(4-((6-methyl-2-(pyrrolidin-1-yl)pyrimidin-4-yl)amino)phenyl)acetamide], the oral bioavailability result is “oral bioavailability; also recorded: orally bioavailable”.
